Experimental data taken from PubChem BioAssay (NCI).
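Tested at 5 concentrations; 48 h exposure; 96-well plates; endpoints linearly interpolated, else capped at highest concentration. GI50 = concentration required for 50% inhibition of growth. TGI: total growth inhibition.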

Legend:
Test in all cases: DTP human tumour cell line panel, 48 h; in the data active means GI50 below about 0.43 µM; inactive means the rest
TK-10 renal = test system: TK-10 renal
EKVX NSCLC = test system: EKVX NSCLC
NCI-H226 lung = test system: NCI-H226 lung
MCF7 breast = test system: MCF7 breast
CCRF-CEM leukemia = test system: CCRF-CEM leukemia
NCI-H460 lung = test system: NCI-H460 lung
OVCAR-4 ovarian = test system: OVCAR-4 ovarian
SF-539 CNS = test system: SF-539 CNS
CAKI-1 renal = test system: CAKI-1 renal
A549 NSCLC = test system: A549 NSCLC
T-47D breast = test system: T-47D breast
DU-145 prostate = test system: DU-145 prostate
SK-MEL-2 melanoma = test system: SK-MEL-2 melanoma
KM12 colon = test system: KM12 colon
HCT-15 colon = test system: HCT-15 colon
MOLT-4 leukemia = test system: MOLT-4 leukemia
NCI/ADR-RES ovarian = test system: NCI/ADR-RES ovarian
HS 578T breast = test system: HS 578T breast
SNB-19 CNS = test system: SNB-19 CNS
NCI-H522 lung = test system: NCI-H522 lung
SK-OV-3 ovarian = test system: SK-OV-3 ovarian
MDA-MB-231 breast = test system: MDA-MB-231 breast
OVCAR-8 ovarian = test system: OVCAR-8 ovarian
HCT-116 colon = test system: HCT-116 colon
NCI-H23 lung = test system: NCI-H23 lung
SR leukemia = test system: SR leukemia
UO-31 renal = test system: UO-31 renal
ACHN renal = test system: ACHN renal
HOP-62 NSCLC = test system: HOP-62 NSCLC

CCP1(=O)N(C)[C@@H]2CCCC[C@H]2N1C
> 100 µM: TGI (TK-10 renal) | TGI (EKVX NSCLC) | TGI (NCI-H226 lung) | TGI (MCF7 breast) | TGI (CCRF-CEM leukemia) | TGI (NCI-H460 lung) | TGI (OVCAR-4 ovarian) | TGI (SF-539 CNS) | TGI (CAKI-1 renal) | TGI (A549 NSCLC) | TGI (T-47D breast) | TGI (DU-145 prostate) | TGI (SK-MEL-2 melanoma) | TGI (KM12 colon) | TGI (HCT-15 colon) | TGI (MOLT-4 leukemia) | TGI (NCI/ADR-RES ovarian) | TGI (HS 578T breast) | TGI (SNB-19 CNS) | TGI (NCI-H522 lung) | TGI (SK-OV-3 ovarian) | TGI (MDA-MB-231 breast) | TGI (OVCAR-8 ovarian) | TGI (HCT-116 colon) | TGI (NCI-H23 lung) | TGI (SR leukemia) | TGI (UO-31 renal) | TGI (ACHN renal)
inactive: GI50 (TK-10 renal) > 100 µM | GI50 (EKVX NSCLC) > 100 µM | GI50 (NCI-H226 lung) > 100 µM | GI50 (MCF7 breast) > 100 µM | GI50 (CCRF-CEM leukemia) > 100 µM | GI50 (NCI-H460 lung) > 100 µM | GI50 (OVCAR-4 ovarian) > 100 µM | GI50 (SF-539 CNS) > 100 µM | GI50 (CAKI-1 renal) > 100 µM | GI50 (A549 NSCLC) > 100 µM | GI50 (T-47D breast) > 100 µM | GI50 (DU-145 prostate) > 100 µM | GI50 (SK-MEL-2 melanoma) > 100 µM | GI50 (KM12 colon) > 100 µM | GI50 (HCT-15 colon) > 100 µM | GI50 (MOLT-4 leukemia) > 100 µM | GI50 (NCI/ADR-RES ovarian) > 100 µM | GI50 (HS 578T breast) > 100 µM | GI50 (SNB-19 CNS) > 100 µM | GI50 (NCI-H522 lung) > 100 µM | GI50 (SK-OV-3 ovarian) > 100 µM | GI50 (MDA-MB-231 breast) > 100 µM | GI50 (OVCAR-8 ovarian) > 100 µM | GI50 (HCT-116 colon) > 100 µM | GI50 (NCI-H23 lung) > 100 µM | GI50 (SR leukemia) > 100 µM | GI50 (UO-31 renal) > 100 µM | GI50 (ACHN renal) > 100 µM | GI50 (HOP-62 NSCLC) > 100 µM
